The record followed here is ChEMBL document CHEMBL2429811, “Novel selective and potent inhibitors of malaria parasite dihydroorotate dehydrogenase: discovery and optimization of dihydrothiophenone derivatives” (J Med Chem, 2013).

The test can be described thus: Selectivity ratio of IC50 for N-terminal His10-tagged human DHODH (Met30 to Arg396) to IC50 for Plasmodium falciparum DHODH (Phe158 to Ser569).

As for `CCOC(=O)C1=C(Nc2ccc3ccccc3c2)OCC1=O`, the Ratio IC50 was above 14000.
